Laboratory results as given in ChEMBL document CHEMBL1128004, “Ketones related to the benzoate 5-HT4 receptor antagonist RS-23597 are high affinity partial agonists” (Bioorg Med Chem Lett, 1994).

Amino acid sequences for entries named in this document (tags omitted). A change or cut given only in a name is not applied to a line headed by its entry.
UniProt Q13639: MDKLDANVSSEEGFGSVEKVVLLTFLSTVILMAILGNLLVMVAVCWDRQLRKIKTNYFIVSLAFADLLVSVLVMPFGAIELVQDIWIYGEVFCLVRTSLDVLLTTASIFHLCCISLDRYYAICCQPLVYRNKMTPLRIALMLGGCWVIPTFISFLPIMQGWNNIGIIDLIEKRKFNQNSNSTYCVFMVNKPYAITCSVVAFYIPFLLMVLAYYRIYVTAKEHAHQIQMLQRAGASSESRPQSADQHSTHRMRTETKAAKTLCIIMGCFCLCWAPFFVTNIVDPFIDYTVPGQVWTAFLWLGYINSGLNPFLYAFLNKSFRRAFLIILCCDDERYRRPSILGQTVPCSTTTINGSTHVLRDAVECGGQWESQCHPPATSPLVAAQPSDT

Target: 5-hydroxytryptamine receptor 4 (Homo sapiens) (UniProt Q13639)
Assay: Intrinsic activity relative to the 5-HT was determined
Type: functional
Details: Rattus norvegicus

Intrinsic activity: 0.6
Compound: CCCCN1CCC(CCC(=O)c2cc(Cl)c(N)cc2OC)CC1
